Bioassay records (PubChem BioAssay)
A selection: hits, their analogues and other compounds. The true share with any hit is near 16%.
TDP1 block – inhibitors of human tyrosyl-DNA phosphodiesterase TDP1; Q9NUW8; recombinant TDP1, AlphaScreen DNA substrate cleavage; Potency, µM (top dose mostly 130 µM), inactives show at the top dose activity change, negative = inhibition, usual class: inhibitors; 0.28% of 350,000 active; AID 485290; further: potency means the concentration at half of the fitted maximal effect; on the % scale 0 is the no-effect control and ±100 the full control effect; nearly all actives have a fitted effect of over 40% in size
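Recombinant human Tdp1 (E. coli-expressed, 1 nM final) preincubated with compounds 15 min at room temperature, then 5'-biotin/3'-phosphotyrosine-FITC DNA substrate (15 nM final) added for 5 min. AlphaScreen beads (10 ug/ml final) added 10 min; cleavage lowers signal.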
DT40 TDP1 CPT – growth inhibition of DT40 Tdp1-/-;hTDP1 cells with camptothecin (screen for TDP1 inhibitors); chicken DT40 Tdp1-/-;hTDP1 cells + 20 nM CPT, ATP luminescence, 48 h; Potency, µM (highest dose often 46.2 µM), inactives show at the highest dose activity change, negative = growth inhibition, actives largely listed as inhibitors; 12% of 420,000 active; AID 686979; further: potency means the concentration at half of the fitted maximal effect; on the % scale 0 is the no-effect control and ±100 the full control effect; nearly all actives have a fitted effect of over 55% in size
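Chicken DT40 Tdp1-/- cells complemented with human TDP1, 400 cells/well, exposed to compounds plus 20 nM camptothecin for at least 48 h at 37 C; viability read as ATP content by CellTiter-Glo luminescence.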
DT40 TDP1 no CPT – qHTS for Inhibitors of human tyrosyl-DNA phosphodiesterase 1 (TDP1): qHTS in cells in absence of CPT; DT40 Tdp1-/- hTDP1 cells, no CPT, ATP luminescence, 48 h; Potency, µM (doses to about 46.2 µM), for the others: at the top dose activity change, negative = growth inhibition, actives largely listed as inhibitors; 15% of 420,000 active; further: potency means the concentration at half of the fitted maximal effect; on the % scale 0 is the no-effect control and ±100 the full control effect; nearly all actives have a fitted effect of over 55% in size
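Growth of hTDP1-complemented DT40 Tdp1-knockout cells is measured by ATP luminescence after at least 48 hr compound exposure at 37 °C, with DMSO substituting for the 20 nM CPT used in the parallel screen.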
miR-21 reporter – raises the signal of a miR-21 reporter | HeLa miR-21 FLuc reporter, luciferase, 48 h | Potency, µM (highest dose often 38.3 µM), inactives show at the highest dose reporter change, positive = more light | 340,000 tested, under 10 active | AID 2288; active = well fitted rising curve with a large enough effect; inconclusive = small, poorly fitted or top-dose-only effect; inactive = no such curve, though single readings can be large or run the other way;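 note: % of control where 0% means no effect; miR-21 action dims this reporter so a rising signal means less miR-21 action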
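HeLa cells endogenously expressing miR-21, stably carrying CMV-driven firefly luciferase with a downstream miR-21 binding site, 2000 cells/well. Titrations up to approximately 40 uM, 48 hours; luciferase luminescence read.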
uPA surface inh – cell surface uPA generation inhibition; Potency, µM (highest dose often 38.3 µM), inactives show at the highest dose activity change, negative = inhibition, most hits filed as inhibitors; 0.31% of 330,000 active; cell surface uPA generation assay, qHTS; AID 540303; active means well fitted inhibition curve with a large enough effect; inconclusive means small, poorly fitted or top-dose-only effect; inactive means no such curve, though single readings can be large or run the other way; tested in mouse RAW 264.7 cells; further: potency means the concentration at half of the fitted maximal effect; on the % scale 0 is the no-effect control and ±100 the full control effect; nearly all actives have a fitted effect of over 55% in size
Numbers without * were called inactive; ? = inconclusive; nt = no result. Unless noted, the call rests on the fitted dose curve; in most records, active means well fitted curve in the direction sought with a large enough effect; inconclusive means small, poorly fitted or top-dose-only effect, or another doubt; inactive means no such curve, though single readings can be large; an effect the other way counts as inactive or inconclusive.

1) O=C(O)c1cc(-c2ccco2)nn1-c1cccc(Cl)c1
2) O=C(O)c1cc(-c2ccco2)nn1-c1ccc(Cl)cc1
3) N#Cc1cccc(CN2CCCN(Cc3ccc(F)cc3)S2(=O)=O)c1
4) Cc1ccc2c(c1)COc1c3ccc(C(=O)N[C@@H](CO)C(C)C)cc3nn1-2
5) Cc1ccc2c(c1)COc1c3ccc(C(=O)N4CCCCC4)cc3nn1-2
6) CCN(CC)CCCNC(=O)c1ccc2c3n(nc2c1)-c1ccc(Cl)cc1CO3
7) O=C(c1ccc2c3n(nc2c1)-c1ccccc1CO3)N1CCOCC1
8) CCc1nc2ccc(C(=O)NC3CCN(Cc4ccccc4)CC3)cn2c1N(C)Cc1cccs1
assay / compound,1,2,3,4,5,6,7,8
TDP1 block,?,14.1µM*,nt,-7.1%,4.7%,-1.0%,1.2%,nt
DT40 TDP1 CPT,-0.1%,?,-13.4%,23.1µM*,20.6µM*,?,8.2µM*,?
DT40 TDP1 no CPT,6.6%,-1.1%,?,18.4µM*,25.9µM*,16.4µM*,9.2µM*,16.4µM*
miR-21 reporter,-1.4%,-2.9%,-1.3%,-44.0%,-60.7%,nt,-38.8%,nt
uPA surface inh,0.5%,0.2%,-18.3%,?,-13.8%,?,7.08µM*,nt

One compound at a time (already shown).
O=C(O)c1cc(-c2ccco2)nn1-c1ccc(Cl)cc1 is entered as TDP1 block = 14.1µM*; DT40 TDP1 CPT = ?; DT40 TDP1 no CPT = -1.1%; miR-21 reporter = -2.9%; uPA surface inh = 0.2%
CCN(CC)CCCNC(=O)c1ccc2c3n(nc2c1)-c1ccc(Cl)cc1CO3 is entered as TDP1 block = -1.0%; DT40 TDP1 CPT = ?; DT40 TDP1 no CPT = 16.4µM*; miR-21 reporter = nt; uPA surface inh = ?

New compounds follow
9) CCc1nc2ccc(C(=O)NC3CCN(Cc4ccccc4)CC3)cn2c1N(C)Cc1cc2ccccc2s1
10) CC1(C(=O)N2CC3(CC(c4ccccc4)=NO3)C[C@H]2C(=O)NCC(N)=O)CC1 (stereo not given in full)
11) Cc1noc(C)c1COc1cccc(C(=O)OCCOc2ccc(F)cc2)c1
12) CC(C)Oc1ccc(CN2CCCC(CO)(Cc3ccccc3)C2)cc1CO (stereo not given)
13) COc1cccc(CC2(CO)CCCN(Cc3cn(C)c4ccccc34)C2)c1 (stereo not given)
14) COc1cccc(CC2(CO)CCCN(Cc3cnn(-c4ccccc4)c3)C2)c1 (stereo not given)
15) COc1cccc(CC2(CO)CCCN(Cc3ccc(OC)c(C)c3OC)C2)c1 (stereo not given)
16) CC(C)C1Nc2ccc(C(=O)N3CCN(c4ccccn4)CC3)cc2NC1=O (stereo not given)
assay / compound,9,10,11,12,13,14,15,16
TDP1 block,nt,-3.9%,nt,nt,3.6%,2.6%,nt,0.3%
DT40 TDP1 CPT,25.9µM*,-4.6%,5.8%,29.1µM*,20.6µM*,?,18.4µM*,?
DT40 TDP1 no CPT,20.6µM*,-6.4%,?,?,23.1µM*,25.9µM*,16.4µM*,1.2%
miR-21 reporter,nt,-4.3%,-5.2%,5.6%,5.9%,-10.4%,6.2%,1.1%
uPA surface inh,nt,15.2%,9.3%,3.3%,-5.2%,-6.7%,?,-3.9%

17) Cc1cccc(N(C)S(=O)(=O)c2cc3c(cc2Cl)NC(=O)CO3)c1
18) COc1cccc(CC2(CO)CCCN(Cc3ccccc3Cl)C2)c1 (stereo not given)
19) COc1cccc(CC2(CO)CCCN(Cc3ccc(CN4CCCCC4)s3)C2)c1 (stereo not given)
20) O=C1OC(c2ccccc2)=N/C1=C\C=C\c1ccccc1[N+](=O)[O-]
21) O=C1OC(c2ccccc2)=N/C1=C\C=C\c1ccco1
22) O=c1c2ccccc2nc2n1-c1ccccc1CCC2
23) O=C1c2ccccc2-n2c1nc1ccccc1c2=O
24) COc1cccc(C(=O)CSc2nccn2C)c1
assay / compound,17,18,19,20,21,22,23,24
TDP1 block,1.3%,nt,-3.6%,-2.7%,44.7µM*,4.4%,9.3%,nt
DT40 TDP1 CPT,-25.2%,?,20.6µM*,?,-29.7%,?,1.3µM*,-7.8%
DT40 TDP1 no CPT,?,?,?,-24.0%,-12.4%,16.4µM*,1.3µM*,-2.3%
miR-21 reporter,3.3%,-0.6%,-1.3%,-6.7%,4.7%,9.1%,11.5%,-54.2%
uPA surface inh,nt,-15.5%,-12.2%,-0.8%,-2.5%,nt,?,0.4%

25) CN(c1ccccc1)S(=O)(=O)c1ccc(C(=O)NCC(c2ccco2)N2CCCCC2)cc1 (stereo not given)
26) COc1ccccc1NS(=O)(=O)c1ccc(C(=O)NCC(c2ccco2)N2CCCCC2)cc1 (stereo not given)
27) Cc1ccc(S(=O)(=O)Nc2ccccc2OC(C(=O)OC(C)(C)C)C(=O)OC(C)(C)C)cc1
28) COc1ccccc1N(C)S(=O)(=O)c1ccc(C(=O)NCC(c2ccco2)N2CCCCC2)cc1 (stereo not given)
29) COc1cc(C(=O)NCC(c2ccco2)N2CCCC2)ccc1OCc1ccc(Cl)cc1Cl (stereo not given)
30) CCCc1nnc(NC(=O)CSc2nc3ccccc3[nH]2)s1
31) COc1cc(SC)ccc1C(=O)Nc1ccc2c(c1)OCO2
32) COc1ccccc1NS(=O)(=O)c1ccc(C(=O)NCc2ccc(S(N)(=O)=O)cc2)cc1
assay / compound,25,26,27,28,29,30,31,32
TDP1 block,-1.1%,nt,nt,nt,nt,2.5%,3.6%,2.6%
DT40 TDP1 CPT,?,14.6µM*,14.6µM*,?,?,?,-2.5%,?
DT40 TDP1 no CPT,14.6µM*,-24.9%,16.4µM*,?,23.1µM*,?,7.5%,14.6µM*
miR-21 reporter,nt,nt,nt,nt,nt,-17.1%,-47.1%,nt
uPA surface inh,-19.0%,2.0%,nt,-22.8%,?,-3.8%,-9.0%,0.6%

33) Cc1ccc(C(=O)NNC(=O)c2ccc(S(=O)(=O)N(C)c3ccccc3)cc2)cc1
34) CN(C)C(CNC(=O)c1cc(S(=O)(=O)N(C)Cc2ccccc2)ccc1Cl)c1ccco1 (stereo not given)
35) O=C(NCC(c1ccc(Cl)cc1)N1CCCCC1)c1ccccc1 (stereo not given)
36) Cc1ccc(S(=O)(=O)N(C)c2ccc(C(=O)NCC(c3ccccc3)N3CCCC3)cc2)cc1 (stereo not given)
37) CN(c1ccccc1)S(=O)(=O)c1ccc(Cl)c(C(=O)NCC(c2ccco2)N2CCCC2)c1 (stereo not given)
38) Cc1ccc(S(=O)(=O)Nc2cccc(C(=O)NCC(c3ccco3)N3CCCCC3)c2)cc1F (stereo not given)
39) Cc1ccc(S(=O)(=O)N(C)c2ccc(C(=O)NCC(c3cccs3)N3CCOCC3)cc2)cc1 (stereo not given)
40) CC(c1ccccc1)C1CC(=O)N(CC(=O)O)C1=O (stereo not given)
41) COc1ccc(OC)c(C2C(C(=O)N3CCCCC3)=C(C)Nc3nc4ccccc4n32)c1 (stereo not given)
42) COc1ccc(NC(=O)C2CCCN(C(=O)Nc3ccc(OC)cc3)C2)cc1 (stereo not given)
43) Cc1nn(Cc2ccccc2)c(C)c1NC(=O)CSc1nnc(-c2cc(Cl)ccc2O)n1C
assay / compound,33,34,35,36,37,38,39,40,41,42,43
TDP1 block,-7.9%,nt,3.6%,nt,0.7%,0.4%,1.3%,1.0%,1.8%,nt,4.5%
DT40 TDP1 CPT,-1.4%,11.6µM*,13µM*,?,13µM*,?,20.6µM*,2.8%,-1.6%,12.1%,?
DT40 TDP1 no CPT,-3.5%,11.6µM*,14.6µM*,20.6µM*,13µM*,20.6µM*,?,0.6%,-2.3%,4.8%,-30.0%
miR-21 reporter,nt,nt,-0.1%,nt,nt,nt,-2.0%,-1.5%,2.4%,-14.5%,2.2%
uPA surface inh,-11.8%,-1.2%,nt,nt,-6.0%,2.1%,1.1%,11.5%,nt,1.6%,1.6%
